{"sequences": {"note": "By UniProt entry, the sequences of proteins in these tests, tags left out. Where a name states a change or a piece, a line headed by the entry shows the natural chain unless it says otherwise.", "UniProt P41144": "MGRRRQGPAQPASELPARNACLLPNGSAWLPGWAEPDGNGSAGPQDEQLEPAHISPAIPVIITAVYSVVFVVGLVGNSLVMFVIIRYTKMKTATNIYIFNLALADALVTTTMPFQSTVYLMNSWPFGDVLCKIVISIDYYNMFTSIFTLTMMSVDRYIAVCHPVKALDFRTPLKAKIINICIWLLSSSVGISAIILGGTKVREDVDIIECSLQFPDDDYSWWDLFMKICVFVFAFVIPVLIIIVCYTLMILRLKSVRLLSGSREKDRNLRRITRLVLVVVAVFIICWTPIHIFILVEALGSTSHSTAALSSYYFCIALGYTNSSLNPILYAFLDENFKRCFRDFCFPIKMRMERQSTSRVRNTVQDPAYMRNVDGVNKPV"}, "source": "patent US6403602B1", "about": "(priority 1997, dated 2002)", "key": {"[1]": {"molecular_target": "T1, kappa1 sites (Cavia porcellus, UniProt P41144)", "T1 construct": "The brains were then homogenized in 50 mM Tris HCl, buffer pH 7.7, using a Polytron; from tissue; host or cells: guinea pig brain homogenate (membrane pellet)", "assay_type": "binding, guinea pig", "settings": "read-out: Ki κ1 [^3H]U69,593"}, "[2]": {"molecular_target": "kappa receptors (Cavia porcellus, UniProt P41144)"}}, "note": "Structures can show the parent of a compound that is named as a salt."}
{"compound": "CCC12CCN(CC3(O)CC3)C(Cc3ccc(O)cc31)C2(C)C", "note": "(single isomer, unassigned; (+)) [(+)Bremazocine]", "values": [{"measurement": "Ki", "setting": "[1]", "result": 0.1, "unit": "nM"}]}
{"compound": "CCC12CCN(CC3(O)CC3)C(Cc3ccc(O)cc31)C2(C)C", "note": "(single isomer, unassigned; (-)) [(−)Bremazocine]", "values": [{"measurement": "DR with Nor-BNI", "setting": "[2]", "result": 226.3}, {"measurement": "Ke of Nor-BNI", "setting": "[2]", "result": 0.09}, {"measurement": "Ratio (after Ke of Nor-BNI)", "setting": "[2]", "result": 0.445}, {"measurement": "Ki", "setting": "[1]", "result": 0.1, "unit": "nM"}]}
{"compound": "COC(=O)/C=C/C(=O)N[C@@H]1CC[C@@]2(O)[C@H]3Cc4ccc(O)c5c4[C@@]2(CCN3CC2CC2)[C@H]1O5", "note": "[β-FNA-HCl]", "values": [{"measurement": "Ki", "setting": "[1]", "result": 0.9, "unit": "nM"}]}
